pIC50: −log10 of the molar value.
Biological target: T1, amyloid (aggregated Aβ1-40) (Homo sapiens, UniProt P05067)
T1 construct: Aβ1-40 (Peptide Institute, INC.) was dissolved in phosphate buffer (pH 7.4); purchased Peptide Institute, INC
Assay: Measurement of amyloid affinity: in vitro binding test, inhibition of [^125I]3′-I-BTA-0 binding
Details: 50% inhibition of [^125I]3′-I-BTA-0 (400 pmol/L) binding to amyloid 1 μmol/L; phosphate buffer pH 7.4, 22° C., 3 hours
Procedure: Affinity of the present compounds with amyloid was examined by the following in vitro binding tests.
(5) Samples in which [^125I]3′-I-BTA-0, each compound for evaluation and amyloid were dissolved in a 0.1% bovine serum albumin-containing phosphate buffer (pH 7.4) at final concentrations shown in Table 2 were prepared. The resulting samples were placed in each well (about 0.3 mL in volume) of a 96-well microplate.
(6) The microplate filled with the sample solutions was shaken at a given rate (400 rpm) at 22° C. for 3 hours.
(7) The glass fiber filter used for the filtration of each sample solution was washed with a 0.1% bovine serum albumin-containing phosphate buffer (pH 7.4) (0.5 mL×5), and radioactivity of the glass fiber filter was measured with an autowell gamma system (manufactured by Aloka, Type: ARC-301B).
(8) Separately, a solution containing 15 μmol/L of 6-Me-BTA-2, 400 pmol/L of [^125I]3′-I-BTA-0 and 1 μmol/L of Aβ1-40 in a 0.1% bovine serum albumin-containing phosphate buffer (pH 7.4) was prepared and subjected to the same procedures as described above in (6) and (7) to measure a radioactivity level. The measured radioactivity level was defined as the background radioactivity level, and used in the calculation of the inhibition ratio (hereinafter referred to as BG). […]

The chains behind the UniProt entries cited, without tags or fusion partners. Residues count along the entry.
UniProt P05067, 672-711: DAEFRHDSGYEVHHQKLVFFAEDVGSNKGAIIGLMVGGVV

SMILES: Cc1ccc2c(c1)sc(-c1ccc(N(C)C)cc1)[n+]2C [Thioflavin T]
- pIC50: < 6.00

Reference: patent publication US8022207B2, “Compound having affinity to amyloid” (Nihon Medi-Physics Co., Ltd., priority 2006, dated 2011)
